Holding throughout (conditions): dose 500.0 nM
Test [1] has as its target Cyclin-dependent kinase 13/Cyclin-K (Homo sapiens) (UniProt Q14004+O75909).
The target of test [2] is Cyclin-Y/Cyclin-dependent kinase 16 (Homo sapiens) (UniProt Q00536+Q8ND76).
For test [3], the target named is CDK1/Cyclin A (Homo sapiens) (UniProt P06493+P20248).
The target of test [4] is CDK2/Cyclin A2 (Homo sapiens) (UniProt P24941+P20248).
Test [5] concerns the target CDK7/Cyclin H/MNAT1 (Homo sapiens) (UniProt P51946+P50613+P51948).
For test [6], the target named is CDK4/Cyclin D3 (Homo sapiens) (UniProt P11802+P30281).
Test [7] has as its target T1, Cyclin-dependent kinase 5/CDK5 activator 1 (Homo sapiens) (UniProt Q00535+Q15078).
Test [8] addresses CDK6/cyclin D1 (Homo sapiens) (UniProt P24385+Q00534).
The target of test [9] is CDK6/cyclin D3 (Homo sapiens) (UniProt P30281+Q00534).
Test [10] concerns the target CDK3/Cyclin E (Homo sapiens) (UniProt P24864+Q00526).
For test [11], the target named is CDK12/Cyclin K (Homo sapiens) (UniProt O75909+Q9NYV4).
For test [12], the target named is CDK18/Cyclin Y (Homo sapiens) (UniProt Q07002+Q8ND76).
In test [13] the target is T1, Cyclin-dependent kinase 5/CDK5 activator 1 (Homo sapiens). This is another data set of the same source.

Protein sequences, listed by entry. Tags and fused reporters are not part of them. Lines headed by an entry give the natural chain unless they say otherwise; changes in a name come on top.
UniProt O75909: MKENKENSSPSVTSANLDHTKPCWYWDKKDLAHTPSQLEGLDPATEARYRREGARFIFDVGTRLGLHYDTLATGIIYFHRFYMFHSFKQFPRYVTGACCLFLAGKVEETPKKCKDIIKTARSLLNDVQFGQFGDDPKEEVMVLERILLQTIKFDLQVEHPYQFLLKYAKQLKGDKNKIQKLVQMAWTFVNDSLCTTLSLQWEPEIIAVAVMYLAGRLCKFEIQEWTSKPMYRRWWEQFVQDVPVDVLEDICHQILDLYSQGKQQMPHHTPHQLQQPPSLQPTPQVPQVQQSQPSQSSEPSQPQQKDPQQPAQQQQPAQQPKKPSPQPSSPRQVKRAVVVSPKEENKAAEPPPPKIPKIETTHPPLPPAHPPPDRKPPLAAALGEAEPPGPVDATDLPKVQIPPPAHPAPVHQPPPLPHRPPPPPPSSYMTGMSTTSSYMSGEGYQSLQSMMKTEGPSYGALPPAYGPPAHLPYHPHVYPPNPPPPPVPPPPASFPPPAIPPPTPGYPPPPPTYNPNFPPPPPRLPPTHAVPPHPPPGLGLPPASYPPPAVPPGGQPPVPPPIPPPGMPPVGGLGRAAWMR
UniProt Q00536: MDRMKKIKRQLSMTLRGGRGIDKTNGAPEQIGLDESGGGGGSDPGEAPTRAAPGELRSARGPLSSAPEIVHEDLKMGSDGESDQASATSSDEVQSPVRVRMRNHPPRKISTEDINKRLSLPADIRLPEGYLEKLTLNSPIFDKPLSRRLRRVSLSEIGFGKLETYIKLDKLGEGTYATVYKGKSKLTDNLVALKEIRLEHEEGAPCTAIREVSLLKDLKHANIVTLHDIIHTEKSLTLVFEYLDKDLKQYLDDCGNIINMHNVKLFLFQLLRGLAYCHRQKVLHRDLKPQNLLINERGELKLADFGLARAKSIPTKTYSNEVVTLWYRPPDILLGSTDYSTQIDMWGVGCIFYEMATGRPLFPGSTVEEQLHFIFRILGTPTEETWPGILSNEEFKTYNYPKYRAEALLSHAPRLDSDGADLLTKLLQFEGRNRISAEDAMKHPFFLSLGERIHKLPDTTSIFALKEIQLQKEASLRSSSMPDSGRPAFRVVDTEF
UniProt Q8ND76: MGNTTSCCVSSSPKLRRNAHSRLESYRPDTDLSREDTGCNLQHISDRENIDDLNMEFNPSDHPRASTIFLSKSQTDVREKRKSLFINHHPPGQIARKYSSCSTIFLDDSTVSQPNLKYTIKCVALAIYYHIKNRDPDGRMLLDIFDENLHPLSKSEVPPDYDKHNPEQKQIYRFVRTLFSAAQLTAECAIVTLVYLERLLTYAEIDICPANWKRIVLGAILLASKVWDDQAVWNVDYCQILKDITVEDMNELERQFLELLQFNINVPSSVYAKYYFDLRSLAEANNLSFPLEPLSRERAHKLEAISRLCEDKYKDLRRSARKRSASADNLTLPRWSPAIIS
UniProt P06493, whole entry, looked up: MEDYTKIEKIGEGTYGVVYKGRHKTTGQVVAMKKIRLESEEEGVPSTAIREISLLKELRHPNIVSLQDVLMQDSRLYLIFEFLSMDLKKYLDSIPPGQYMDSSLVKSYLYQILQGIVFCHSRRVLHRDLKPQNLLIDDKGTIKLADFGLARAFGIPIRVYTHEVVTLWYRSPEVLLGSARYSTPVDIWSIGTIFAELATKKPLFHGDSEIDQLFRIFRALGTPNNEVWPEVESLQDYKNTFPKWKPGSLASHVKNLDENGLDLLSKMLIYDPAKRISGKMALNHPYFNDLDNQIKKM
UniProt P20248, whole entry, looked up: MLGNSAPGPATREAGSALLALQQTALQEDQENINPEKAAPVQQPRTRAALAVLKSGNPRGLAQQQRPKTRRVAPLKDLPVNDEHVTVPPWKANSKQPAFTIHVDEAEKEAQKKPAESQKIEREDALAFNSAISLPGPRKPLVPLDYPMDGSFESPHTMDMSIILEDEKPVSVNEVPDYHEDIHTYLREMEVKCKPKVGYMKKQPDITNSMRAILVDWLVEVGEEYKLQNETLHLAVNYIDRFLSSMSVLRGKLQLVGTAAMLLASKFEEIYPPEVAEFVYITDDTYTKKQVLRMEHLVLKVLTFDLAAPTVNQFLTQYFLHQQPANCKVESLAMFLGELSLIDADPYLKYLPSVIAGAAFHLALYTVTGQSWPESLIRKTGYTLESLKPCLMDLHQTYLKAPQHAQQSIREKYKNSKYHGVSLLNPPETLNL
UniProt P51946: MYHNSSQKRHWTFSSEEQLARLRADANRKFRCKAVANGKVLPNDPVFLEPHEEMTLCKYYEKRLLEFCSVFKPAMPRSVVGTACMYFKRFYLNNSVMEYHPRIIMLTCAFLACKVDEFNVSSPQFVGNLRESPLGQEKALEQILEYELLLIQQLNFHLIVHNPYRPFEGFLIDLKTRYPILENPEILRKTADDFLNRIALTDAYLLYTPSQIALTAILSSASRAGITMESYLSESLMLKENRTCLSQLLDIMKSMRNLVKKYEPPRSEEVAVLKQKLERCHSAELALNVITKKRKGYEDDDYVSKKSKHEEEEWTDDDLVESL
UniProt P50613: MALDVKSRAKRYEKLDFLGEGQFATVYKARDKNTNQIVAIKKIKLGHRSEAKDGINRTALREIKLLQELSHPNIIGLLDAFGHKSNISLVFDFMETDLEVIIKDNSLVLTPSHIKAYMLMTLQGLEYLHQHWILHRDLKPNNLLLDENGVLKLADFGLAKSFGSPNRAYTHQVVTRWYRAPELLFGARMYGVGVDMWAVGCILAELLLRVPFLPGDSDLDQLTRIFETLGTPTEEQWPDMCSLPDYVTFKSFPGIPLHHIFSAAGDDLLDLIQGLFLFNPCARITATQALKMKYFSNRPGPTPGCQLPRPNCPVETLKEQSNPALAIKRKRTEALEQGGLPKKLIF
UniProt P51948: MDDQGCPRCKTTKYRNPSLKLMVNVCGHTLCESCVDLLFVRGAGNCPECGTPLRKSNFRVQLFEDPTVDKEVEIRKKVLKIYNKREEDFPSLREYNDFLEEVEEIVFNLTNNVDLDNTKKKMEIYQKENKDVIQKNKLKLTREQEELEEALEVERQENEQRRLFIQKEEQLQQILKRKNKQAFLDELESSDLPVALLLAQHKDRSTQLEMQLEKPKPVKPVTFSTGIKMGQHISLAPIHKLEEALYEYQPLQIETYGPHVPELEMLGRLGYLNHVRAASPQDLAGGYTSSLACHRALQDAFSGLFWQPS
UniProt P11802: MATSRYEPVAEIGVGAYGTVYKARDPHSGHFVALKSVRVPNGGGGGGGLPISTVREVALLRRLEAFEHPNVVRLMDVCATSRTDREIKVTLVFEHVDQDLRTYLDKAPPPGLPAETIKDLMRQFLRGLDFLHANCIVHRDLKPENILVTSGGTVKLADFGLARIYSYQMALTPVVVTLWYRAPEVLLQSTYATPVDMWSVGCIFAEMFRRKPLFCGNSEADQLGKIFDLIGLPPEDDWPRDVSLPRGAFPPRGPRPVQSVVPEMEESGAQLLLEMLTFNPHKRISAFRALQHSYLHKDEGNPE
UniProt Q00535, whole entry, looked up: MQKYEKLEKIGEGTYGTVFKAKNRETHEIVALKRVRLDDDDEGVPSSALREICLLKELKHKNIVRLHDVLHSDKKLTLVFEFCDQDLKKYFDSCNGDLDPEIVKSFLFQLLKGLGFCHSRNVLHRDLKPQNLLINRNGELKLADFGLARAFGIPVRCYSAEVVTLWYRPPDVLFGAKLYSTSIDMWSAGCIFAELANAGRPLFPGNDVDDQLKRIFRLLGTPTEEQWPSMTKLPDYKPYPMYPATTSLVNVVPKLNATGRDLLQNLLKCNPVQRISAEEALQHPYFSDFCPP
UniProt Q15078: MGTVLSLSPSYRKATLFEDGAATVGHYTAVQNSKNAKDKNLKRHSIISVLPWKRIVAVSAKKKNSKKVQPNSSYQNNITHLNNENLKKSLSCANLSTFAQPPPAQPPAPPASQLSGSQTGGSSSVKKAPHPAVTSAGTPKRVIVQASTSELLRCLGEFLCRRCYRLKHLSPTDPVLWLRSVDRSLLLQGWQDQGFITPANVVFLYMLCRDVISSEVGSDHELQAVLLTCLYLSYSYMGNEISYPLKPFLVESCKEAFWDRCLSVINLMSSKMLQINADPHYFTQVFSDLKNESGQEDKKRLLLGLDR
UniProt P24385: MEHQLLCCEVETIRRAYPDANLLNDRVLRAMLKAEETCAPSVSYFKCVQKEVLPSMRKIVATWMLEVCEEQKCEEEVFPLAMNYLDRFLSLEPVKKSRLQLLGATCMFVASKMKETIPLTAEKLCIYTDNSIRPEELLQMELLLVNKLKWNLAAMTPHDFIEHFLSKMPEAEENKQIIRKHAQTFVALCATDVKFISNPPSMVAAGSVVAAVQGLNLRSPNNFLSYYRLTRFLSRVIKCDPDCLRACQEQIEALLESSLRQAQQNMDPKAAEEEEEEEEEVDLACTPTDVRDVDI
UniProt Q00534: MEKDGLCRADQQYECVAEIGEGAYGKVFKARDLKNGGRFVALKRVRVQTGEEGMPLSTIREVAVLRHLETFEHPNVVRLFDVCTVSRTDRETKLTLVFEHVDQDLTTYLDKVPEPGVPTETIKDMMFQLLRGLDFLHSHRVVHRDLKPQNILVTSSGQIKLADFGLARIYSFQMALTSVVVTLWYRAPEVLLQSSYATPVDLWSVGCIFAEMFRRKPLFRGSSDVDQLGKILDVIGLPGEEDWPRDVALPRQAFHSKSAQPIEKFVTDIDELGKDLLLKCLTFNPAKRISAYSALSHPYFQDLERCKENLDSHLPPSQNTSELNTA
UniProt P24864, whole entry, looked up: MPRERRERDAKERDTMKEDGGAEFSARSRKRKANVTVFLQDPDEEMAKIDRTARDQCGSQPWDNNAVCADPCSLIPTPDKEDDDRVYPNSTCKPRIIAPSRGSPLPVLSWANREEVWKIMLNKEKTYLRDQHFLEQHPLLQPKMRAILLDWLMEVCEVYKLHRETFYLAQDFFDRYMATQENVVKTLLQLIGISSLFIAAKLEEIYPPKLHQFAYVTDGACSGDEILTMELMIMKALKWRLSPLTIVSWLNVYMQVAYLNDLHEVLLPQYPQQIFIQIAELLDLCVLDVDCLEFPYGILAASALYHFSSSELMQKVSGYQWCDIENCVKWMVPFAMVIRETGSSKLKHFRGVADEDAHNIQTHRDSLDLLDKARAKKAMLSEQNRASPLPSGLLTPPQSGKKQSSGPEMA
UniProt Q9NYV4, whole entry, looked up: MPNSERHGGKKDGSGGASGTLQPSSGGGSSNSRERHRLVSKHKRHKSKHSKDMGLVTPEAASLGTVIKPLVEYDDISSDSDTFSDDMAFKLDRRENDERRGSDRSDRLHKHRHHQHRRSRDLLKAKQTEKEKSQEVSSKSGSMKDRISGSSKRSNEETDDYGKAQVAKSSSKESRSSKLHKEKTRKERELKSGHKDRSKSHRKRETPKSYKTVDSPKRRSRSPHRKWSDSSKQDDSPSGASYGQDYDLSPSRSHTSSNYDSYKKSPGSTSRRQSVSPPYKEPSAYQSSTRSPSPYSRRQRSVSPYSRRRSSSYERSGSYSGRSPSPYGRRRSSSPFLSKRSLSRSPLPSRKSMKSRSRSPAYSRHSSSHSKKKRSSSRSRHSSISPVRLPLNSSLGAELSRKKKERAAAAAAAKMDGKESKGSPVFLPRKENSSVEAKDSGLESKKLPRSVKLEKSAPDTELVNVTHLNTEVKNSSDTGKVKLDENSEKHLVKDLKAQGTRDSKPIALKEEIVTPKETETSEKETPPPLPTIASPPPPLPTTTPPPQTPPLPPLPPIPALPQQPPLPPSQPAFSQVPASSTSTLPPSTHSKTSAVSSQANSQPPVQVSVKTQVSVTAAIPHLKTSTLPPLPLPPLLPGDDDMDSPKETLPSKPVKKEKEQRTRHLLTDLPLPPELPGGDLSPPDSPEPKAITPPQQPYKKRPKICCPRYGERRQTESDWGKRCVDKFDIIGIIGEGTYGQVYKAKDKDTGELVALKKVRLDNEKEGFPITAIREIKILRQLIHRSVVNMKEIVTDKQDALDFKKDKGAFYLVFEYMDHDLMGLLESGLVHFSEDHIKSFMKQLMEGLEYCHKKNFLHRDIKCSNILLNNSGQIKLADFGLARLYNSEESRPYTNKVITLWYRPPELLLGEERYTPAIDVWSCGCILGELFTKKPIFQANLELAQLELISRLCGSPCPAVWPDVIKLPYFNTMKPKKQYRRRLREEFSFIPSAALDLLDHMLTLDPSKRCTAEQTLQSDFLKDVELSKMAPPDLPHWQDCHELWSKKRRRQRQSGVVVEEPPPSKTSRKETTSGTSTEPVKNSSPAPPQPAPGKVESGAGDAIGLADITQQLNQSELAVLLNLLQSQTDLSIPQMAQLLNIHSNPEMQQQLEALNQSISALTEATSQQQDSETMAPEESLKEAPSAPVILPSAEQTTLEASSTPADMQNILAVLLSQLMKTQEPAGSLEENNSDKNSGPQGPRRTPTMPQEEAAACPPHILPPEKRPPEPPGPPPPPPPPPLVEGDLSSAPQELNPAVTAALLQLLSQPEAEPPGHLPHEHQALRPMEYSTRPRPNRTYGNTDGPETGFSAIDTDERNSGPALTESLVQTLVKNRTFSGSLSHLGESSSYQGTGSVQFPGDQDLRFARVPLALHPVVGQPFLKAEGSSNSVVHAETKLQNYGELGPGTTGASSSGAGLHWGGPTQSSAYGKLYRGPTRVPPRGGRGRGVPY

SMILES strings stand for the structures.

Consider `COc1cc(OC)c2c(=O)[nH]c(-c3ccc(C(=O)N4CC5(CCN(c6ncc7c(C)cc(=O)n(C8CCCC8)c7n6)CC5)C4)cc3)nc2c1`, for which the inhibition in test [1] amounted to 18.2%; in [2] it was 7.37%; in [3], 11.3%; in [4], 7.13%; in test [5] it was 7.58%; in test [6] it was 45.6%. Further, the inhibition in test [7] is 22%; in test [8], 68.4%; in [9], 79.9%; in test [10] it was 9.38%; in test [11], 3.69%; in test [12], 3.01%. For the same compound, the inhibition in [13] turned out to be 5.66%.

As usually defined, the inhibition is the drop in the measured response relative to a control, in per cent.

Source of the values: ChEMBL document CHEMBL6083283, “Discovery of Dual CDK6/BRD4 Inhibitor Inducing Apoptosis and Increasing the Sensitivity of Ferroptosis in Triple-Negative Breast Cancer” (J Med Chem, 2024).
